Experimental findings from PubChem BioAssay AID1987 (The Scripps Research Institute Molecular Screening Center, 2009) are described below.

By UniProt entry, the sequences of proteins in these tests, tags left out. Where a name states a change or a piece, a line headed by the entry shows the natural chain unless it says otherwise.
UniProt P53041: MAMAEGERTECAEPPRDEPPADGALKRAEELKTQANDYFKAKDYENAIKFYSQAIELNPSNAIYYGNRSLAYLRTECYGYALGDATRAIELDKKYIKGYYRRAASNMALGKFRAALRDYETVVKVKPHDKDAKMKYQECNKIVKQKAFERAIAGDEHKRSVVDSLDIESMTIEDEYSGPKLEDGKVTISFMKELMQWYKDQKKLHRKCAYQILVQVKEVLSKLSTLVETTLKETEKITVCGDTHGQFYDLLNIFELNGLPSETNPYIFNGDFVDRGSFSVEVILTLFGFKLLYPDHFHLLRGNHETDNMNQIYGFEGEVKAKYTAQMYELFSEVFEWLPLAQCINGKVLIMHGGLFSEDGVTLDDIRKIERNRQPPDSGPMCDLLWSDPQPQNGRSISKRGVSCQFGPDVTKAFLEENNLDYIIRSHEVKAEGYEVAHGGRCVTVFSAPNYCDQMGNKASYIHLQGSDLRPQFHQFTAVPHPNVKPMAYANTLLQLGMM

The entries are a selection whose mix differs from that of the whole data set. The source made the active and inactive calls.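 The calls were made as follows: active = inhibition above the campaign's mean inhibition across all tested compounds plus 3 SD (cut at about 9.5% in these data); inactive = the rest.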

This assay concerns the target Serine/threonine-protein phosphatase 5 (Homo sapiens) (UniProt P53041). Nature of the assay: PP5 phosphatase inhibitors, primary screen, biochemical, fluorescence (AID 1987).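 Also: 0% = DMSO only and 100% = 100 µM cantharidin control.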 Conditions: purified PP5c, OMFP substrate fluorescence; at 6.7 µM; active compounds read high.
As a reminder, the inhibition is the relative decrease from the control value, in per cent. As to `CCC1=CC2Cc3nc4ccc(Cl)cc4c(N)c3C(C1)C2` (stereo not drawn), the inhibition is inactive: -0.66%.

Consider `CCOP(=O)(Nc1ccc(C)cn1)OCC`, for which the inhibition was inactive: 1.33%.

With `CN(CCCl)Cc1cc(Cl)c(NC2=NCCN2)c(Cl)c1`, the inhibition is inactive: 0.78%.

For `CC(C)/C=N\N=C(\N)N[N+](=O)[O-]`, the inhibition is inactive: 1.7%.

Take `CN(C(=O)Cc1ccc(Cl)c(Cl)c1)[C@@H]1CCCC[C@H]1N1CCCC1`: the inhibition is inactive: 1.26%.

Take `CC1(CBr)Cn2c(nc3ccccc3c2=O)S1` (stereo not drawn): the inhibition is inactive: 2.43%.

With `O=[As](O)(c1ccccc1Br)c1ccccc1Br`, the inhibition was inactive: 2.2%.

With `COc1ccccc1CNC(=O)COC(=O)C(O)(c1ccccc1)c1ccccc1`, the inhibition was inactive: 2.07%.

With `CN(C)C1(CNC(=O)c2ccc(S(C)(=O)=O)cc2)CCCCC1`, the inhibition was inactive: 0.25%.

Turning to `O=C(/C=C/c1ccccc1)OC1CN2CCC1CC2` (stereo not drawn), the inhibition was inactive: 2.66%.

For `CC1CCC(C(C)C)C(OP(=O)(Nc2ccccn2)c2ccccc2)C1` (stereo not drawn), the inhibition was inactive: 3.17%.

Take `Cc1ccc(C(=O)OC2CN3CCC2CC3)cc1` (stereo not drawn): the inhibition was inactive: 0.82%.

For the compound `Cc1nn(-c2ccccc2)c2c1P(=O)(N1CCOCC1)N(C)C(c1ccccc1)=N2` (stereo not drawn), the inhibition is inactive: 3.19%.

Turning to `Nc1cccc([As](=O)(O)c2ccccc2)c1`, the inhibition was inactive: -2.55%.

Take `O=[As](O)(c1cccs1)c1cccs1`: the inhibition was inactive: 0.76%.

As for `Cc1ccc(OCC(=O)OC2CN3CCC2CC3)cc1` (stereo not drawn), the inhibition is inactive: -1.67%.

Regarding `O=P1(Nc2ccc(Br)cn2)COc2ccccc2OC1`, the inhibition is inactive: -1.15%.

Turning to `NS(=O)(=O)c1cccc(NC(=O)COC(=O)C(O)(c2ccccc2)c2ccccc2)c1`, the inhibition is inactive: 1.19%.

On to `O=P1(Nc2ncccn2)COc2ccccc2OC1`, for which the inhibition was inactive: 0.11%.

Regarding `Nc1ccccc1[As](=O)(O)c1ccccc1`, the inhibition was inactive: -1.79%.

With `O=C(O)COc1ccc([As](=O)(O)O)cc1[N+](=O)[O-]`, the inhibition was inactive: 2.82%.

As to `O=P(Nc1nccs1)(Oc1ccccc1)Oc1ccccc1`, the inhibition is inactive: 4.54%.

With `O=P(Nc1nccs1)(c1ccccc1)c1nc2ccccc2s1` (stereo not drawn), the inhibition was inactive: 0.91%.

On to `CCOP1(=S)c2c(C)nn(CCC#N)c2N=C(c2ccccc2F)N1C` (stereo not drawn), for which the inhibition was inactive: 0.4%.

In the case of `CS(=O)(=O)c1cc([N+](=O)[O-])c2no[n+]([O-])c2c1`, the inhibition is inactive: 0.9%.

As to `CCOP1(=S)c2c(C)nn(CCC#N)c2N=C(c2ccc(F)cc2)N1C` (stereo not drawn), the inhibition was inactive: 1.12%.

Turning to `CN(C(=O)Cc1ccccc1)[C@@H]1CC[C@]2(CCCO2)C[C@H]1N1CCCC1`, the inhibition was inactive: 1.55%.

Turning to `N#CCCN(C(=O)COC(=O)C(O)(c1ccccc1)c1ccccc1)c1ccc(F)cc1`, the inhibition is inactive: 1.89%.

As for `CN(C(=O)Cc1ccc(Cl)c(Cl)c1)[C@H]1CC[C@@]2(CCCO2)C[C@@H]1N1CCCC1`, the inhibition is inactive: -1.71%.

With `O=[N+]([O-])c1ccc2c(c1)nnn2O`, the inhibition was inactive: -1.15%.

Consider `CN(C)C(=O)c1cc([N+](=O)[O-])cc2c1-c1c(cc([N+](=O)[O-])cc1[N+](=O)[O-])C2=O`, for which the inhibition was inactive: 4.57%.

On to `NC(=O)Nc1ccc([As](=O)(O)O)cc1`, for which the inhibition is inactive: -1.48%.

Take `Cc1cccc(OCC(=O)OC2CN3CCC2CC3)c1` (stereo not drawn): the inhibition was inactive: 1.62%.

Take `O=[As](O)(c1cccc(O)c1)c1cccc(O)c1`: the inhibition was inactive: -2.16%.

On to `O=C(OC1CN2CCC1CC2)c1ccc(Cl)cc1` (stereo not drawn), for which the inhibition was inactive: -0.85%.

Turning to `CS(=O)(=O)c1ccc(Cl)c(NC(=O)COC(=O)C(O)(c2ccccc2)c2ccccc2)c1`, the inhibition was inactive: 2.07%.

For `O=[As](O)(O)c1cccnc1`, the inhibition was inactive: -0.32%.

With `COc1cc(C(=O)NCC2(N3CCOCC3)CCCCC2)cc(Cl)c1OC(C)C`, the inhibition is inactive: 3.72%.

Take `CCOP(=O)(Nc1cccc2ccccc12)OCC`: the inhibition is inactive: 0.48%.

`COc1cc(C2NCCC3(OCCO3)C2(C)C)cc(OC)c1OC` (stereo not drawn): the inhibition was inactive: 1.03%.

Take `Nc1cccc2c([As](=O)(O)O)cccc12`: the inhibition is inactive: 1.15%.

As for `Cc1ccc(NCCc2c([N+](=O)[O-])cc([N+](=O)[O-])cc2[N+](=O)[O-])cc1`, the inhibition was inactive: 0.15%.

In the case of `CCCOP(=S)(Nc1nc(N)cc(=O)[nH]1)OCCC`, the inhibition is inactive: 3.14%.
